The numbers were not newly measured in patent US20240197719A1 (priority 2018, published 2024), which cites them from elsewhere.

The conditions of this series: very high intravenous doses (up to 24 mg), individuals who are not opioid dependent; cited from earlier work.

As to `C=C1CC[C@@]2(O)[C@H]3Cc4ccc(O)c5c4[C@@]2(CCN3CC2CC2)[C@H]1O5` [Nalmefene, 17-cyclopropylmethyl-4,5α-epoxy-6-methylenemorphinan-3,14-diol], the safety and tolerability entry is “safe and well tolerated”.
